{"source": "patent US10883993B2", "about": "“P53 biomarkers” (MULTIVIR INC., priority 2008, dated 2021)", "origin": "cited, not measured here", "system": "SCCHN", "conditions": "monotherapy studies in SCCHN, ITT population, standard of care drugs; cited from earlier work", "data": [{"substance": "Cetuximab: monoclonal antibody ERBITUX® (cetuximab)", "values": [{"measurement": "Median Overall Survival", "result": 5.8, "unit": "months"}]}]}
